Earlier results as cited in article PMC10182956 (Archives of Toxicology, 2023).

Conditions: human, published; ref Birkett and Miners 1991; Graham et al. 2011; Freedman and Somberg 1991; Vasudev et al. 2001; cited from earlier work

In the case of `Cn1c(=O)c2c(ncn2C)n(C)c1=O` [caffeine], the “In vivo Css” value is given as 10.8 to 53.6 µM.
